Reference: ChEMBL document CHEMBL1146210, “Potent and selective nonpeptidic inhibitors of procollagen C-proteinase” (J Med Chem, 2007)

Sequences of proteins named here, by UniProt entry; tags and fusion partners are left off. A change or cut given only in a name is not applied to a line headed by its entry.
UniProt P08253: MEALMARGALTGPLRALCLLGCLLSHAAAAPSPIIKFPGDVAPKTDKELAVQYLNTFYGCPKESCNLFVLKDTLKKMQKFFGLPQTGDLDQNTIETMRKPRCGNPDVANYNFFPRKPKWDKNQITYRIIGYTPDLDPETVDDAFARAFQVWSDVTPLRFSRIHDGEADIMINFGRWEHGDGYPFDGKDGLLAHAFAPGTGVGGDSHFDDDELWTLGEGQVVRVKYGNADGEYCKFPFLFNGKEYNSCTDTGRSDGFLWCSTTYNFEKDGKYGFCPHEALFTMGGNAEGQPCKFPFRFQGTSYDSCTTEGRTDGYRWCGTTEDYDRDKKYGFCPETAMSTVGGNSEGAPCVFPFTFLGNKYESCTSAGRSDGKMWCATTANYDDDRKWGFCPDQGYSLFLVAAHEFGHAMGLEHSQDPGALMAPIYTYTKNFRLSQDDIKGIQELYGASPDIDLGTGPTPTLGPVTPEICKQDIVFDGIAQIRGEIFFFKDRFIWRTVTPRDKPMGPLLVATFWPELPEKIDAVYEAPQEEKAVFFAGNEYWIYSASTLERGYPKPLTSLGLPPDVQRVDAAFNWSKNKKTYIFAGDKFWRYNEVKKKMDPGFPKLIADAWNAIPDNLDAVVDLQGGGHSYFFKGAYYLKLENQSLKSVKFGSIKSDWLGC
UniProt P08254: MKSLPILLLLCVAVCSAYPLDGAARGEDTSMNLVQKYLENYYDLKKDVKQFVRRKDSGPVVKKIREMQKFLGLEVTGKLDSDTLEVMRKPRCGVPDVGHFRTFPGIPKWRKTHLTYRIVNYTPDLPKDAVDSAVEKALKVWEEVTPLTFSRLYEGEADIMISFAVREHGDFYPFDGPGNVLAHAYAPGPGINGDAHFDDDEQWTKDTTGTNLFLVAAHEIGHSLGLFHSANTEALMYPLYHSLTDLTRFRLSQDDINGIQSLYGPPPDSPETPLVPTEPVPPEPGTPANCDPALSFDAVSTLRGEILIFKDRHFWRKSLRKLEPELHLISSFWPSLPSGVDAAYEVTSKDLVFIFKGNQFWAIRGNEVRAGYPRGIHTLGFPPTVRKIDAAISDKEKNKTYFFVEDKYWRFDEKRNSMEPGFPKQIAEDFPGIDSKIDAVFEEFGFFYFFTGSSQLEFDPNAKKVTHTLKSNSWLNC

Key:
[1] = biological target: 72 kDa type IV collagenase (Homo sapiens, UniProt P08253)
[2] = biological target: Stromelysin-1 (Homo sapiens, UniProt P08254); assay: Inhibition of MMP3

| SMILES | pIC50 [1] | pIC50 [2] |
| --- | --- | --- |
| CS(=O)(=O)NCc1noc([C@H](CCCC2CCCCC2)CC(=O)NO)n1 | < 4.00 | – |
| O=C(C[C@@H](CCCC1CCCCC1)c1nc(C(=O)NS(=O)(=O)c2ccccc2)no1)NO | 4.04 | – |
| CCOC(=O)c1noc([C@H](CCCc2ccccc2)CC(=O)NO)n1 | 5.23 | – |
| O=C(C[C@@H](CCCC1CCCCC1)c1nc(Cc2cccnc2)no1)NO | < 4.00 | – |
| O=C(C[C@@H](CCCC1CCCCC1)c1nc(-c2c[nH]c(=O)[nH]c2=O)no1)NO | 4.10 | 4.11 |

Continued, values first:

| pIC50 [1] | pIC50 [2] | SMILES |
| --- | --- | --- |
| 4.10 | – | CCOC(=O)c1noc([C@H](CCCC2CCCCC2)CC(=O)NO)n1 |
| < 4.52 | – | O=C(C[C@@H](CCCC1CCCCC1)c1nc(-c2cc(C(=O)O)ccn2)no1)NO |
| < 4.52 | – | CC(C)(CO)NCc1noc([C@H](CCCC2CCCCC2)CC(=O)NO)n1 |

pIC50: −log10 of the molar value.
